Target: P2X7 receptor (Homo sapiens, UniProt Q99572)
Assay: Ca++ flux assay (FLIPR) in P2X7-HEK-293 cell line stably expressing the full length P2X7 receptor, Bz-ATP activation
Settings: read-out: P2X7 Ca Flux hu IC50 nM; P2X7-HEK-293 cells; agonist Bz-ATP; fluorescence as total area over 90 seconds
Experimental: The ability of Triazolopyrazinone Compounds to inhibit P2X7 function can be determined in Ca^++ flux assay using a P2X7-HEK-293 cell line stably expressing the full length P2X7 receptor. The assay protocol is as described in Cheewatrakoolpong et al., Biochem. Biophys. Res. Commun. 332:17-27 (2005) with minor modification, and is as summarized hereinafter. Briefly, cells were plated in poly-D-lysine-coated wells, and incubated at 37° C. for 24 hours. Cells were then incubated for 1 hour with a loading buffer which contains a dye sensitive to changes in Ca^++ concentration (lx Calcium Plus no wash dye from Molecular Devices, Sunnyvale, Calif.). The test compounds were added to the wells in the dye loading step. Plates containing the wells were transferred to a Fluorometric Imaging Plate Reader (Molecular Devices, Sunnyvale, Calif.). The cells were activated by the addition of the P2X7 receptor agonist 2′(3) —O-(4-benzoylbenzoyl)adenosine 5′-triphosphate (Bz-ATP from Sigma-Aldrich, St. Louis, Mo.), and the fluorescence was monitored for 90 seconds. The fluorescent signal was determined as the total area over the 90 second run time. Using this protocol, representative Triazolopyrazinone Compounds, compounds 1471 were tested. Tables 3 to 6 show the concentration at which 50% of the maximum response in the Ca^++ was inhibited (IC50) for each of the test compounds.

Chains of the proteins cited; added tags and fusions are not shown.
UniProt Q99572, whole entry: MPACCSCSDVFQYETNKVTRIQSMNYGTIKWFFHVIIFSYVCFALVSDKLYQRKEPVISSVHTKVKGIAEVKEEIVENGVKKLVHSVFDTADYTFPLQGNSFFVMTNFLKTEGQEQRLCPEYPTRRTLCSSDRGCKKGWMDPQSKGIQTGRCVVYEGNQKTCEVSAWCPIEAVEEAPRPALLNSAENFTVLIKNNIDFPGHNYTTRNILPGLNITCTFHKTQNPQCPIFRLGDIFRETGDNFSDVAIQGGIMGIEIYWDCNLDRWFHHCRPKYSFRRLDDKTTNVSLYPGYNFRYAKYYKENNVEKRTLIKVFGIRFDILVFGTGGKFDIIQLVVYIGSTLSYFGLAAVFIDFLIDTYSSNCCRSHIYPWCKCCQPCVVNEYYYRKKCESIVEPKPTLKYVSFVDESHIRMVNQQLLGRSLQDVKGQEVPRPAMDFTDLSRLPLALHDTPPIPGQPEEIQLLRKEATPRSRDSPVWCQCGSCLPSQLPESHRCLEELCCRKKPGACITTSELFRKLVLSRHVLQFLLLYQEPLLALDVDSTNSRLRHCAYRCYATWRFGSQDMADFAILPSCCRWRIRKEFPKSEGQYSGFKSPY

| Compound | IC50 [nM] |
| --- | --- |
| Cc1c(Cl)cccc1-n1ccn2c(SCc3cc(Br)cc(Br)c3)nnc2c1=O | 522 |
| Cc1cccc(C)c1CSc1nnc2c(=O)n(-c3cccc(Cl)c3C)ccn12 | 245 |

Source: US20130196986A1 (priority 2010, published 2013)
